Some of the results follow.

In this experiment the test system is A. baumannii ATCC 17978. Briefly: relative growth (fraction of control); higher = less inhibition. The conditions noted are these: 50 µM.
`COc1ccc(S(=O)(=O)N[C@@H]2C=C[C@@H](CC(=O)N3CCN(c4ccccc4)CC3)O[C@H]2CO)cc1`: the relative growth came out at 1.08.
The result for `CN1CCC(=C2c3ccccc3Sc3ccccc32)CC1.O=C(O)/C=C\C(=O)O` reads 0.789; that for `COc1cc2c3cc1Oc1cc(ccc1O)C[C@@H]1c4c(cc(OC)c(O)c4Oc4ccc(cc4)C[C@@H]3N(C)CC2)CC[N+]1(C)C.Cl.O.O.O.O.O.[Cl-]`, 1.14.
The result for `CCn1cc(C(=O)O)c(=O)c2cc(F)c(N3CCNC(C)C3)c(F)c21.Cl` (stereo unspecified) reads 0.166; that for `C[C@@H]1CC[C@]2(C(=O)O)CC[C@]3(C)C(=CCC4[C@@]5(C)CC[C@H](O)C(C)(C)C5CC[C@]43C)C2[C@H]1C` (stereo partly specified), 1.13; that for `CCNC1CN(CCCOC)S(=O)(=O)c2sc(S(N)(=O)=O)cc21` (stereo unspecified), 1.26.
The figure for `C=C1CCOC(=O)[C@@H](NC(C)=O)CCCN(O)C(=O)/C=C(\C)CCOC(=O)[C@H](NC(C)=O)CCCN(O)C(=O)/C=C(\C)CCOC(=O)[C@@H](NC(C)=O)CCCN(O)C(=O)C1` is 0.947; for `O=C(C[C@H]1CC[C@@H](NC(=O)CN2CCOCC2)[C@H](CO)O1)NCCc1ccccc1` it is 0.988; for `C=CCOC1=N[C@@H]2[C@@H](C(=O)N(C)C(=O)N2C)N1C` it is 1.01.
Consider `Cc1nc(C)c(Cl)c(O)c1Cl`, for which the relative growth worked out at 0.83.
`C=C/C=C/[C@@H]1C(=C)CN([C@@H](Cc2ccccc2)C(=O)OC)[C@H]1[C@@H](O)CCn1cc(CCC(=O)NO)nn1` displayed a relative growth of 1.26.
The figure for `COC(=O)[C@@H](NC(=O)Cn1cc(CCC(=O)NO)nn1)c1ccccc1` is 1.03; for `C[N+](C)(C)CCCCNC(=O)[C@H]1C[C@H]2C(=O)N3CCC[C@H]3C(=O)N2[C@H]1c1cccc(OCCO)c1` it is 1.11.
The result for `Cc1ccc(N2NC(=O)/C(=N/O)C2=O)cc1C` reads 1.11; that for `Cc1c(O[C@@H]2O[C@H](COC(=O)C[C@@](C)(O)CC(=O)O)C[C@H](O)[C@H]2O)occc1=O`, 1.02.
In turn, `Cc1cc(=O)n2nc(S(C)(=O)=O)nc2[nH]1` came in with a relative growth of 0.985.
The figure for `Cc1ccc(S(=O)(=O)N(C)C[C@H]2Oc3cc(Br)ccc3S(=O)(=O)N([C@@H](C)CO)C[C@H]2C)cc1` is 0.896; for `C[C@H](C(=O)O)N1C(=O)CCC1=O` it is 0.858.
The figure for `C[C@H]1CN([C@@H](C)CO)S(=O)(=O)c2ccc(-c3cncnc3)cc2O[C@H]1CN(C)C(=O)Cc1ccccc1` is 0.905.
The result for `O=C(O)P(=O)(O)O` reads 0.107; that for `CCS(=O)(=O)NCC[C@@H]1CC[C@@H](NS(=O)(=O)c2ccccc2C)[C@@H](CO)O1`, 0.926; that for `CCN(CC)CCOC(=O)C1(C2CCCCC2)CCCCC1.Cl`, 0.951.
As to `O=[N+]([O-])c1ccc(/C=C/CN(C/C=C/c2ccc([N+](=O)[O-])cc2)CCNS(=O)(=O)c2cccc3cnccc23)cc1`, the relative growth came out at 0.842.
The figure for `COCCCOc1ccnc(CS(=O)c2nc3ccccc3[n-]2)c1C.[Na+]` (stereo unspecified) is 1.27; for `O/N=C1\CCCCc2c1[nH]c1ccc(C3CCCCC3)cc21` it is 0.917; for `O=C(NCCN1CCOCC1)[C@@]1(CCS(=O)(=O)c2ccccc2)COC(c2ccc(OCCCO)cc2)=N1` it is 1.07.
The figure for `C[C@H](CO)N1C[C@H](C)[C@@H](CN(C)S(=O)(=O)c2ccccc2F)Oc2ncc(C#Cc3cccnc3)cc2C1=O` is 0.866; for `CC(C)Cn1cnc2ccccc21` it is 0.848; for `CCN(CC)CCNC(=O)C(=O)NC1CC1` it is 1.01.
The result for `O=C1c2ccccc2[C@](Cc2ccccc2I)(C(=O)NCC(F)(F)F)[C@H](c2ccc(CO)cc2)N1C1CCCCC1` reads 1.12.
Consider `COc1ccc2cccc(CCNC(C)=O)c2c1`, for which the relative growth was determined as 1.03.
For `C[C@H](CO)N1C[C@H](C)[C@@H](CN(C)Cc2ccc(F)cc2)Oc2cc(C#CC3CC3)ccc2S1(=O)=O`, the relative growth came out at 1.22.
The figure for `N#CC(=Cc1ccc(O)c(O)c1)C(N)=O` is 1.07; for `COc1cc(C=O)ccc1O` it is 0.846; for `CC(C)NC(=O)N[C@H]1CC[C@@H](CCN)O[C@H]1CO` it is 1.05.
For `CC1(C)CC(=O)C(=CNC(CO)(CO)CO)C(=O)C1`, the relative growth was found to be 0.899.
The compound `CC[C@H]1CN(C)N1C(=O)[C@@H]1CCCO1` returned a relative growth of 1.13.
The figure for `CN(C)CCC=C1c2ccccc2CCc2ccccc21.Cl` is 0.78; for `CN(C)c1ccc(O)c2c1C[C@H]1C[C@H]3[C@H](N(C)C)C(O)=C(C(N)=O)C(=O)[C@@]3(O)C(O)=C1C2=O.Cl` it is 0.208; for `COc1cccc(NC(=O)N2C[C@H](O)COC[C@@H]3O[C@@H](CC(=O)NCCCN4CCOCC4)CC[C@H]32)c1` it is 1.12.
The result for `C=CCC[C@H](Cc1ccc(F)cc1)C(=O)O[C@@H](CNC(=O)[C@H](CC=C)CC(=O)N(CCO)Cc1ccccc1)c1ccccc1` reads 1.27; that for `CC(C)NC(=O)N[C@H]1C=C[C@H](CC(=O)NCCN2CCCC2)O[C@H]1CO`, 0.949.
The figure for `COc1ccccc1-c1cnc2c(c1)C(=O)N([C@H](C)CO)C[C@H](C)[C@@H](CN(C)C(=O)c1cccnc1)O2` is 1.06.
In turn, `Cc1ccc(S(=O)(=O)N[C@@H](Cc2ccccc2)C(=O)NCCn2cc(-c3cccc(/C=C/C(=O)NO)c3)nn2)cc1` registered a relative growth of 0.938.
`Nc1ccccc1OCc1ccccc1` registered a relative growth of 0.877.
Regarding `Cc1cn(C2CC(N=[N+]=[N-])C(CO)O2)c(=O)[nH]c1=O` (stereo unspecified), the relative growth turned out to be 1.1.
The figure for `N[C@H](Cc1ccccc1)C(=O)O` is 0.955; for `O=c1c(-c2ccc(O)cc2)coc2cc(O)cc(O)c12` it is 1.07; for `N[C@@H](c1ccccc1)c1cc2ccccc2cn1` it is 0.776.
Consider `NC(=O)Cn1c(=O)c2ccccc2n(CC(N)=O)c1=O`, for which the relative growth came out at 1.06.
The figure for `O=C(C[C@@H]1C=C[C@@H](NC(=O)CN2CCOCC2)[C@@H](CO)O1)NCCc1ccncc1` is 1.05; for `C[C@H](NC(=O)C[C@@H]1C=C[C@@H](NC(=O)CN2CCOCC2)[C@@H](CO)O1)c1ccccc1` it is 1.08.
The figure for `Cn1cnc(S(=O)(=O)N[C@@H]2C=C[C@@H](CC(=O)NCC3CC3)O[C@H]2CO)c1` is 1.12.
The result for `C=CCOC(=O)[C@@H]1[C@H]2C(=O)O[C@H](c3ccccc3)[C@H](c3ccccc3)N2[C@H](c2ccc(OCCOC(=O)[C@H]3C[C@H]4C(=O)N5CCC[C@H]5C(=O)N4[C@H]3c3ccc(O)cc3)cc2)[C@@]12C(=O)Nc1ccc(I)cc12` reads 1.3; that for `O=C(CCc1cn(CC(=O)N2CCC3(CC2)C(=O)NCN3c2ccccc2)nn1)NO`, 0.865; that for `COC(=O)C[C@H]1CC[C@@H]2[C@H](COC[C@H](O)CN2S(=O)(=O)c2ccccc2C)O1`, 1.06.
`C[C@H]1CN([C@@H](C)CO)C(=O)Cc2cc(NC(=O)Nc3cccc4c3CCCC4)ccc2O[C@H]1CN(C)S(=O)(=O)c1ccc(Cl)cc1`: the relative growth was 1.04.
The result for `COCC#Cc1ccc2c(c1)O[C@@H](CN(C)Cc1ccc(F)cc1)[C@@H](C)CN([C@H](C)CO)S2(=O)=O` reads 0.705; that for `C[C@]12CCC(=O)C=C1CCC1C2C(=O)C[C@@]2(C)C1CC[C@]2(O)C(=O)CO` (stereo partly specified), 0.942; that for `CNc1[nH]cnc(=S)c1N`, 0.883.
The figure for `CCCN1C[C@H](C)[C@H](OC)CN(C)C(=O)c2cc(NS(=O)(=O)c3cn(C)cn3)ccc2OC[C@H]1C` is 1.02.
The figure for `CC=CC(=O)N(CC)c1ccccc1C` (mixture of isomers) is 0.971.
Take `COCCNC(=O)C[C@@H]1CC[C@H](NS(=O)(=O)c2ccc(C)cc2)[C@@H](CO)O1`: the relative growth stood at 1.08.
The compound `CCOc1ccccc1OCCNC(C)Cc1ccc(OC)c(S(N)(=O)=O)c1.Cl` (stereo unspecified) had a relative growth of 0.917.
The result for `C[C@H]1CN([C@@H](C)CO)C(=O)Cc2cc(NC(=O)Nc3cccc4c3CCCC4)ccc2O[C@H]1CN(C)S(=O)(=O)c1ccc(Oc2ccccc2)cc1` reads 1.11; that for `CC1(C)O[C@@H]2CC3C4CCC5=CC(=O)C=C[C@]5(C)C4[C@@H](O)C[C@]3(C)[C@]2(C(=O)CO)O1` (stereo partly specified), 0.881; that for `COC(=O)[C@H]1[C@H]2C[C@@H]3c4[nH]c5cc(OC)ccc5c4CCN3C[C@H]2C[C@@H](OC(=O)c2cc(OC)c(OC)c(OC)c2)[C@@H]1OC`, 1.15.
In turn, `Cc1noc(C)c1S(=O)(=O)N(C)C[C@@H]1OCc2cn(nn2)CCCC(=O)N([C@H](C)CO)C[C@H]1C` yielded a relative growth of 0.951.
The figure for `O=C(C[C@@H]1CC[C@@H](NC(=O)c2ccc(F)cc2)[C@H](CO)O1)NCc1ccncn1` is 0.848; for `C[C@]1(C(=O)NCC(F)(F)F)c2ccccc2C(=O)N(Cc2cc(F)cc(C(F)(F)F)c2)[C@H]1c1ccc(CO)cc1` it is 0.918.
The figure for `C[C@@H]1CN([C@@H](C)CO)S(=O)(=O)c2ccc(C#CC3(O)CCCC3)cc2O[C@@H]1CN(C)C(=O)c1cccnc1` is 1.05; for `CCOC(=O)Cc1csc(/C(=N/O)C(N)=O)n1` it is 1.1.
The figure for `CN1CCN(C(=O)C[C@@H]2CC[C@@H]3[C@H](COC[C@H](O)CN3C(=O)Nc3ccc4c(c3)OCO4)O2)CC1` is 0.999; for `CO[C@@H](CN(C)C(=O)c1ccc2c(c1)OCO2)[C@@H](C)CN([C@H](C)CO)S(=O)(=O)c1ccc(F)cc1` it is 0.755; for `CC(=O)N(C)C[C@@H]1Oc2ncc(C#C[C@H](C)O)cc2C(=O)N([C@H](C)CO)C[C@H]1C` it is 0.846.
Compound `C[C@H]1NC(=O)N[C@@H]1CCCCC(=O)O` gave a relative growth of 0.911.
The result for `COc1ccc(C#Cc2ccc3c(c2)[C@]2(C(=O)N3)[C@H](c3ccccc3OCCO)N3[C@H](c4ccccc4)[C@H](c4ccccc4)OC(=O)[C@H]3[C@@H]2C(=O)N2CCN(c3ncccn3)CC2)cc1` reads 1.03; that for `O=C(O[C@@H]1Cc2c(O)cc(O)cc2O[C@@H]1c1cc(O)c(O)c(O)c1)c1cc(O)c(O)c(O)c1`, 0.807; that for `CCOC(=O)[C@H](CCc1ccccc1)N[C@@H](C)C(=O)N1[C@H](C(=O)O)C[C@H]2CCCC[C@@H]21`, 0.871.
The result for `C[C@H]1COC(=O)[C@H](NC(=O)OCC2c3ccccc3-c3ccccc32)CC=CC[C@@H](CC(=O)NCCO)C(=O)N1` reads 0.864.
The compound `C[C@@H]1O[C@@H](O[C@@H]2[C@@H](O)[C@H](OCCc3ccc(O)c(O)c3)O[C@H](CO)[C@H]2OC(=O)/C=C/c2ccc(O)c(O)c2)[C@H](O)[C@H](O)[C@H]1O` gave a relative growth of 1.22.

Source of the values: published antibiotic growth screens (doi:10.1038/s41589-023-01349-8).
